From patent US20030113828A1, “Compositions and methods for modulating Syk function” (priority 2001, published 2003)
pKd: −log10 of the molar value.

Target: Syk (Homo sapiens, UniProt P43405)
Assay: Surface plasmon resonance (BIAcore) of Syk/integrin cytoplasmic domain interactions
Type: binding
Parameters: Syk(6-370) was cleaved from GST-Syk(6-370) coated Glutathione Sepharose™ 4B by thrombin; GST (N, cleaved yes); made in house; host or cells: bacteria (pGEX vector, IPTG induction)
Conditions: judged by both affinity chromatography and surface plasmon resonance; read-out: Kd of integrin β cytoplasmic domains for the tandem SH2 domains
Description: GST fusion proteins were produced in accordance with procedures described by Shiue et al. ((1995) Mol Cell Biol 15:272-281). Briefly, exponential growth phase bacteria were induced with 0.1 mM IPTG for 4 hours at 37° C. Cells were then pelleted, resuspended in lysis buffer (PBS with 0.5% TritonX-100, 1 mM DTT, 1 mM PMSF, and protease inhibitors (Boehringer Mannheim, Germany)), and sonicated at 4° C. Lysates were clarified at 20,000×g for 30 minutes, and supernatant was incubated with Glutathione Sepharose™ 4B (Amersham Pharmacia Biotech, Piscataway, N.J.) pre-equilibrated in lysis buffer. The mixture was incubated overnight at 4° C., then washed 4× in elution buffer (100 mM Tris pH 8.0, 100 mM NaCl, 1 mM DTT, 1 mM PMSF) without GSH. Final elution was carried out in elution buffer containing 20 mM Glutathione. For BIAcore analysis of Syk binding to integrin cytoplasmic domains, Syk(6-370) was cleaved from GST-Syk(6-370) coated Glutathione Sepharose™ 4B by thrombin (1 Unit/mg protein) overnight at 4° C.
BIAcore 3000 (BIAcore, Uppsala, Sweden) was used for real time kinetic analysis of the Syk/integrin cytoplasmic domain interactions. Experimental procedures, integrin cytoplasmic domain modifications, and data analysis was performed in accordance with procedures described by Yan et al. ((2001) J Biol Chem 276:28164-28170).

pKd: 7.12
Substance: β1: integrin β1 cytoplasmic domain model protein
